## Binding of CDR-mutated scFvs to a peptide of the spike HR2 region

Reference: Li et al. 2023, doi:10.1038/s41467-023-39022-2. File: FLAb, binding data.

Target: peptide PDVDLGDISGINAS, taken from heptad repeat 2 (HR2) of SARS-CoV-2 spike.

The variants keep the light chain, the linker and the frameworks of Ab-14 (scFv order VH, a 15-residue (Gly4Ser)3 linker, VL).
VH: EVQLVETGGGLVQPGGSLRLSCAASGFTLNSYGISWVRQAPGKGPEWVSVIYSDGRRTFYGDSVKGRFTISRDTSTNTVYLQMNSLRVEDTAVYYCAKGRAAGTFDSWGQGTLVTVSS
VL: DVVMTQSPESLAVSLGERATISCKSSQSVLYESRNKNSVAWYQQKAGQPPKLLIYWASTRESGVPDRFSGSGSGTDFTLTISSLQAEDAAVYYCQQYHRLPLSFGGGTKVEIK

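Phage display of a naive human antibody library on the peptide gave the parent. The variants were designed computationally from a first round of random CDR variants and then made and measured. Their group label is 14H_En_Gen (En: ensemble of fine-tuned language models; Gen: genetic algorithm). Affinity was read by AlphaSeq, a pooled yeast mating assay with surface-displayed partners. Binding brings cells together so that they mate, and sequencing counts the barcode pairs among the diploids. Read counts were normalised to the haploid input and turned into Kd by a linear fit to BCL2-family pairs of known affinity, for each replicate. Each pool was mated in six replicate cultures.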

The parent's heavy chain CDRs are GFTLNSYGIS, VIYSDGRRTFYGDSVK, GRAAGTFDS; each variant's own CDRs replace them letter for letter. The read-out is the apparent dissociation constant on a log10 scale (nM): the lower, the stronger. Averages over replicates are reported, and they cover detected replicates only. The authors' rule: three or more of the six replicates give a measured affinity, fewer mean a poor binder.

CDR-H1,CDR-H2,CDR-H3,"log10 Kd, replicates","log10 Kd (nM), mean",signal with controls
GFDLDEYGIS,VIYADGMRTAYTDSVK,GTNAGTFDI,-0.98 -0.31 -0.54 -0.05 -0.79 -0.23,-0.48,0 of 18
GFDLNEYGIS,VIYADGMRTVYADDVK,GNNAGTFDI,0.29 0.30 0.36 0.58 0.49 0.26,0.38,0 of 18
GFDLDEYGIS,VIYADGSRTAYADKVK,GNVAGTFDV,-0.07 0.67 0.06 -0.24 0.74 0.03,0.20,0 of 18
GFDLDEYGIS,VIYADGRRTFYADSVK,GEVAGTFDV,-0.14 -0.23 -0.22 -0.33 -0.21 0.06,-0.18,0 of 18
GFDLNEYGIS,VIYADGVRTAYADSVK,GNVGGTFDV,-0.73 -1.18 -0.48 -1.27 -0.60 -0.33,-0.77,0 of 18
GFDLEEYGIS,VIYADGQRTFYADSVK,GNVAGTFDV,-0.80 -0.96 -0.66 -0.35 -1.05 -0.26,-0.68,0 of 18
GFDLNEYGIS,VIYADGMRTAYVDSVK,GANAGTFDV,-0.77 -0.49 -0.74 -0.98 -0.94 -0.88,-0.80,0 of 18
GFDLDEYGIS,VIYADGQRTAYSDSVK,GQVAGTFDV,-0.70 -0.67 -0.82 -0.86 -0.85 -0.63,-0.75,0 of 18
GFDLNEYGIS,VIYADGRRTAYADSVK,GGNAGTFDL,0.00 -0.26 -0.48 -0.68 -0.78 -0.58,-0.46,0 of 18
GFDLNEYGIS,VIYADGKRTAYADNVK,GETAGTFDL,-0.09 -0.07 -0.38 -0.25 -0.35 -0.19,-0.22,0 of 18
GFDLNEYGIS,VIYADGKRTAYTDSVK,GENAGTFDM,0.06 -0.29 -0.19 -0.14 0.12 -0.16,-0.10,0 of 18
GFDLDEYGIS,VIYADGMRTAYADDVK,GSNAGTFDI,0.27 1.41 0.59 0.63 0.98 0.41,0.72,0 of 18
GFDLEDYGIS,VIYADGMRTAYTDSVK,GENAGTFDV,0.35 0.25 -0.06 -0.32 -0.09 0.23,0.06,0 of 18
GFDLNEYGIS,VIYADGMRTAYSDSVK,GNQAGTFDT,-0.77 0.34 0.05 -1.16 1.14 -0.90,-0.22,0 of 18
GFDLNEYGIS,VIYADGKRTVYADSVK,GNVAGTFDM,-0.84 -0.83 -0.80 -0.86 -0.66 -0.88,-0.81,0 of 18
GFDLNEYGIS,VIYADGVRTSYADSVK,GEVAGTFDI,-0.19 -0.04 -0.33 -0.65 -0.32 -0.24,-0.29,1 of 18 (1.53)
GFDLNEYGIS,VIYADGKRTAYSDSVK,GNVAGTFDA,-0.36 -0.81 -0.96 -0.75 -0.82 -0.12,-0.64,0 of 18
GFDLDEYGIS,VIYADGVRTAYADNVK,GNVAGTFDV,-0.66 -0.43 -0.56 -0.85 -0.69 -0.62,-0.64,0 of 18
GFDLNEYGIS,VIYADGMRTAYADSVK,GENAGTFDA,0.43 -0.17 0.24 -0.59 -0.94 0.30,-0.12,0 of 18
GFDLNEYGIS,VIYADGMRTAYVDSVK,GETAGTFDV,-0.17 -0.34 -0.50 -0.25 -0.20 -0.20,-0.28,0 of 18
GFDLDEYGIS,VIYADGMRTAYADKVK,GTNAGTFDV,0.37 0.21 -0.47 -0.35 -0.05 0.23,-0.01,0 of 18
GFDLDEYGIS,VIYADGMRTAYADKVK,GGNAGTFDV,-0.16 0.45 -0.07 -0.17 0.23 0.22,0.08,0 of 18
GFDLNEYGIS,VIYADGVRTAYADTVK,GQNAGTFDV,-0.77 -0.47 -0.74 -0.50 -0.38 -0.68,-0.59,0 of 18
GFDLDEYGIS,VIYADGRRTAYADSVK,GEVAGTFDL,0.05 0.13 -0.06 -0.48 -0.22 0.10,-0.08,0 of 18
GFDLNEYGIS,VIYADGMRTAYADNVK,GENAGTFDM,0.79 -0.71 -0.30 -1.16 -0.97 -0.54,-0.48,1 of 18 (0.97)
GFDLDEYGIS,VIYADGMRTAYSDSVK,GANAGTFDL,-0.65 -0.66 -0.64 -0.80 -0.76 -0.55,-0.68,0 of 18
GFDLNEYGIS,VIYADGMRTAYTDSVK,GNVAGTFDL,-0.23 -0.23 -0.44 -0.33 -0.43 -0.32,-0.33,0 of 18
GFDLDEYGIS,VIYADGMRTFYADSVK,GNTAGTFDI,-0.13 -0.32 -0.21 -0.39 -0.42 -0.35,-0.30,0 of 18
GFDLDEYGIS,VIYADGQRTAYADSVK,GENAGTFDI,-0.27 -0.76 -0.52 -0.80 -0.50 -0.51,-0.56,1 of 18 (1.22)
GFDLNEYGIS,VIYADGMRTVYADSVK,GEVAGTFDL,0.44 0.16 0.20 0.09 -0.08 0.40,0.20,1 of 18 (2.20)
GFDLNEYGIS,VIYADGLRTAYADNVK,GEVAGTFDV,-0.42 -0.63 -0.77 -0.46 -0.74 -0.13,-0.52,0 of 18
GFDLNEYGIS,VIYADGQRTVYADSVK,GNVAGTFDL,-0.82 -0.49 -0.71 -0.96 -0.71 -0.84,-0.75,0 of 18
GFDLEDYGIS,VIYADGKRTAYADSVK,GNQAGTFDV,0.46 0.20 0.51 0.50 0.56 0.59,0.47,0 of 18
GFDLNEYGIS,VIYADGKRTAYADSVK,GSVAGTFDV,-0.78 -0.15 -0.72 -1.08 -0.78 -0.57,-0.68,0 of 18
GFDLNEYGIS,VIYADGMRTAYADDVK,GNVAGTFDL,-0.32 -0.19 -0.26 -0.65 -0.63 -0.32,-0.39,0 of 18
GFDLNEYGIS,VIYADGQRTFYADSVK,GQNAGTFDV,-0.37 -0.37 0.09 -0.10 -0.13 0.25,-0.11,0 of 18
GFDLNEYGIS,VIYADGVRTFYADSVK,GNVAGTFDL,-0.35 -0.56 -0.44 -0.41 -0.48 -0.26,-0.42,0 of 18
GFDLNEYGIS,VIYADGRRTAYADSVK,GEAAGTFDV,-0.53 -0.43 -0.31 -0.32 -0.10 0.23,-0.24,0 of 18
GFDLNEYGIS,VIYADGMRTAYADSVK,GQVAGTFDL,-0.16 -0.19 -0.31 -0.86 -0.09 -0.26,-0.31,0 of 18
GFDLNEYGIS,VIYADGKRTAYADSVK,GSNAGTFDM,0.44 0.24 -0.07 -0.19 -0.05 0.50,0.14,0 of 18
GFDLNEYGIS,VIYADGMRTAYADDVK,GNAAGTFDV,0.70 0.37 -0.47 -0.15 -0.24 -0.31,-0.02,0 of 18
GFDLNEYGIS,VIYADGRRTVYADSVK,GNQAGTFDV,-0.79 -1.04 -0.94 -0.37 -0.08 -0.86,-0.68,0 of 18
GFDLDEYGIS,VIYADGMRTAYADSVK,GSNAGTFDV,-0.37 -0.34 -0.57 -0.33 -0.88 0.04,-0.41,1 of 18 (1.13)
GFDLDEYGIS,VIYADGMRTAYADNVK,GEVAGTFDT,0.38 -0.37 -0.79 -0.70 -0.32 -0.37,-0.36,0 of 18
GFDLNEYGIS,VIYADGMRTAYSDSVK,GENAGTFDL,-0.07 -0.35 -0.08 -0.50 -0.19 0.10,-0.18,1 of 18 (2.55)
GFDLNEYGIS,VIYADGRRTSYADSVK,GNQAGTFDV,0.18 0.52 0.19 0.03 -0.23 0.33,0.17,0 of 18
GFDLDEYGIS,VIYADGMRKAYADSVK,GNVAGTFDI,-0.53 0.11 -0.76 -1.07 -0.43 -0.56,-0.54,0 of 18
GFDLDEYGIS,VIYADGMRTAYADSVK,GNTAGTFDV,-1.04 -0.50 -1.31 -1.31 -0.75 -0.20,-0.85,0 of 18
GFDLNEYGIS,VIYADGMRTAYADSVK,GNNAGTFNV,0.29 0.38 0.01 0.46 0.03 0.35,0.25,0 of 18
GFDLNEYGIS,VIYADGVRTAYSDDVK,GQNAGTFDV,0.60 0.18 -0.13 0.11 0.68 -0.17,0.21,1 of 18 (3.77)

The range of this assay differs from that of the first round, and the authors advise against merging the two. Three control strains display no target. For all heavy chain designs, 1% of the pairings with them gave a signal, with a median of 2.08 and one signal in twenty below 0.84, so weak values seen in few replicates may be background. The control count says in how many pairings with the empty strains this scFv gave a signal, with their mean in brackets. The parent sequence was in this pool as ten entries: three were never detected, three once, and four in most replicates, with averages from 0.34 to 2.37.